Results published in PubChem BioAssay AID1532 (PCMD, 2009).
The list shows a part of the results, in another mix than the full data. Some of these compounds have results that are not shown, active ones among them. Activity calls are given as the source filed them. Cut-off read from the data, not from the text of the source: active = inhibition above about 30% (passing the limit was not always enough); inconclusive = no clear call, values can overlap the other calls.

System: RmlC (dTDP-4-dehydrorhamnose 3,5-epimerase) and RmlD (dTDP-4-dehydrorhamnose reductase), coupled enzyme assay
Assay: RmlC and RmlD coupled enzyme inhibitors, primary screen, biochemical, 384-well, compound mixtures, retest (AID 1532)
Conditions: 384-well mixture HTS, at 5.5 µM, hits give high values

SMILES	inhibition
CC(C)N1C(=O)CC2(CCN(CCOC(=O)C(O)(c3ccccc3)c3ccccc3)CC2)C1=O	inactive: -7.81%
CN(C)c1cccc(C(=O)NCC2(N(C)C)CCCCC2)c1	inactive: -7.81%
O=C(OC1CN2CCC1CC2)C(CO)(c1ccccc1)c1ccccc1 (stereo not drawn)	inactive: 10.7%
